Results on two compounds are retold here after PMC12415213, “A genome-scale drug discovery pipeline uncovers therapeutic targets and a unique p97 allosteric binding site in Schistosoma mansoni” (Proceedings of the National Academy of Sciences of the …, 2025).

By UniProt entry, the sequences of proteins in these tests, tags left out.
UniProt G4M0P7, entry or part of it: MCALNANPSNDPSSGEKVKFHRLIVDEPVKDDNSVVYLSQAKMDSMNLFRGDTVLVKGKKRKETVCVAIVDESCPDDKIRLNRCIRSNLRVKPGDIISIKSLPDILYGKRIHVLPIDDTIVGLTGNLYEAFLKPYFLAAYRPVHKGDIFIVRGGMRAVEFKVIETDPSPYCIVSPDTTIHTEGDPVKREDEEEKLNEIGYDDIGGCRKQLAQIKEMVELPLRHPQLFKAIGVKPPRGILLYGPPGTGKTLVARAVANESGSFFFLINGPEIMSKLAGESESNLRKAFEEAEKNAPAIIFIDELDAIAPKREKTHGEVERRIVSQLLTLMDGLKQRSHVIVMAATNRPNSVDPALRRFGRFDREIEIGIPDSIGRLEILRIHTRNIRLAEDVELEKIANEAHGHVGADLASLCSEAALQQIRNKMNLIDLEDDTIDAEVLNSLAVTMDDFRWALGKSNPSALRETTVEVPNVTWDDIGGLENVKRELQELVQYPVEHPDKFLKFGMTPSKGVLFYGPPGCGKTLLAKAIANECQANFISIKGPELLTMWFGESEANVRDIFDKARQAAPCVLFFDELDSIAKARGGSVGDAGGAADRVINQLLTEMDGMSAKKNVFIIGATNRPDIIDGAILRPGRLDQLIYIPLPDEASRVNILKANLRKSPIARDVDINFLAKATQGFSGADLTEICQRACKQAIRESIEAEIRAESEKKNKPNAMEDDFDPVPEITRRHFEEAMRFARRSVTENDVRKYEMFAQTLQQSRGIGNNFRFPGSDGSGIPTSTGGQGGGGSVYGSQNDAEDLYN
UniProt P55072, whole entry: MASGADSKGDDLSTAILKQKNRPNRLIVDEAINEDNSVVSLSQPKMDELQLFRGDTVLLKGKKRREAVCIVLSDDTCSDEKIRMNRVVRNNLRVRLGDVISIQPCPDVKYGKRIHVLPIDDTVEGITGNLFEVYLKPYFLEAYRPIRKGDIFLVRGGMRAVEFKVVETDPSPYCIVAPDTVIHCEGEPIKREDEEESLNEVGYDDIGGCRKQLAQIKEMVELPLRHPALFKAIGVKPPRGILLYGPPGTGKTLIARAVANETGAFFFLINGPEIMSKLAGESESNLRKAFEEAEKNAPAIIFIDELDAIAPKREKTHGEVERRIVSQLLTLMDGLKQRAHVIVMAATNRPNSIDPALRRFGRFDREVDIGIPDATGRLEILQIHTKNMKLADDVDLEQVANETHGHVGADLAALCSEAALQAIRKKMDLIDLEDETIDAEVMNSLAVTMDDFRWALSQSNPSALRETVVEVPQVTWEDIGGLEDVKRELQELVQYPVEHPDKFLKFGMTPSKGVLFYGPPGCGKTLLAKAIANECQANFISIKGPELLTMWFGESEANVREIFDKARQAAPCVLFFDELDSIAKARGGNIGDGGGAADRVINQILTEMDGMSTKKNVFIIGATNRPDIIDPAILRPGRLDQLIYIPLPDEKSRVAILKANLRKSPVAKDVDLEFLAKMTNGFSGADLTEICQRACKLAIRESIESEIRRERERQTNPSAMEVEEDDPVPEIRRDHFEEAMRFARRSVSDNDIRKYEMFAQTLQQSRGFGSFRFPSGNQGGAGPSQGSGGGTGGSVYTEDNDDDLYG

Broadly, the IC50 is the concentration that gives 50% inhibition.

For assay [1], the target named is S. mansoni p97 (Smp_018240) (Schistosoma mansoni, UniProt G4M0P7). It is filed as biochemical. The protocol: Evaluation of p97’s ATPase activity and compound potency
For manual ATP consumption assays, 1 µM p97 was incubated with 1% DMSO or inhibitor (1% DMSO final) in assay buffer [50 mM Tris (pH 7.5), 20 mM MgCl2, 1 mM EDTA, 0.5 mM tris(2-carboxyethyl)phosphine (TCEP)] for 5 minutes prior to the addition of 20 µM ATP in a 384-well plate for a total reaction volume of 10 µL, and a final concentration of 500nM enzyme and 10 µM ATP. The reaction was allowed to proceed for 50 minutes at room temperature before adding equivalent volume of Kinase-Glo Plus reagent (Promega), and a further incubation of 10 minutes in the dark. Luminescence was read using a BioTek Synergy 2 plate reader […]
1 μM, 500 nM, 100 nM, 50 nM, 10 nM, 5 nM, 1 nM, and 0 nM) in triplicate, maintaining a concentration of 1% […]
were calculated using GraphPad Prism. […]

A further assay has as its target T1, H. sapiens p97 (P55072) (Homo sapiens, UniProt P55072).
T1 construct: purified recombinant full-length (1-806aa) H; 6xHis (N); made in house; host or cells: E. coli BL21 (DE3)
The assay is described as follows: Kinase-Glo ATP consumption assay, recombinant H. sapiens p97. Conditions: recombinant Hsp97, Kinase-Glo, 100 μM to 1 nM; NA = no notable effect on the enzyme at tested concentrations; >100 = IC50 predicted above 100 μM or maximal inhibition not achieved. The format is biochemical.

In another assay the test system is adult S. mansoni. The assay is described as follows: Single-concentration (10 μM) treatment of adult worms, attachment and morphology. It is filed as cell-based, Schistosoma mansoni. Conditions: in vitro culture. The protocol: DMSO). All selected compounds were obtained from commercial vendors (Medchemexpress, Selleck Chemicals, Sigma-Aldrich, ApexBio, Tocris, Santa Cruz Biotechnology, and Cayman Chemical Company) (Dataset S4) with […]
the activity of the desired compounds. Roughly 5 adult worm pairs were placed in 3mL Basch medium in a 12-well culture vessel, and incubated at 37° C, 5% CO2 for the length of the experiment. Compound was administered at D0, D1, and D2, media and drug refreshed every 24 hr. Worms were then allowed to remain in culture until D5, where a final assessment of worm attachment to tissue culture substate was made by light microscopy.
Observations on movement and morphology were also recorded. A negative control (0.1% DMSO) and positive control (PZQ; 10 µM in 0.1% DMSO) were included in each experiment, and each experiment was repeated in triplicate for validation. […]

Regarding `O=C(C#Cc1ccncc1)Nc1ccc2oc(-c3ccc(C(F)(F)F)cn3)nc2c1` [Compound 808], in assay [1], the “Fold Selectivity (parasite enzyme over human enzyme)” value was determined as 2.3 fold and the half-maximal inhibitory concentration (IC50) was 0.18 ± 0.026 µM. Further, the IC50 on H. sapiens p97 (P55072) is 0.41 ± 0.084 µM.
Turning to `O=C(C#CC1CCCCC1)Nc1ccc2oc(-c3ccccn3)nc2c1` [Compound 733], the “Fold Selectivity (parasite enzyme over human enzyme)” value in assay [1] is reported as 1.3 fold. Besides, the IC50 was 34 ± 1.6 µM in assay [1] and 43 ± 4.4 µM at H. sapiens p97 (P55072). Also, in the assay on adult S. mansoni, the “phenotype of adult worms after treatment” value is “still active on worms”.
